Results from patent US6417164B1, “Treatment of type II diabetes mellitus with amylin agonists” (Amylin Pharmaceuticals, Inc., priority 1995, dated 2002).

Assay: Solubility and stability characteristics compared to human amylin
Format: physicochemical
Excerpt: These preferred compounds include ^25Pro^26Val^28,29Pro-h-amylin, ^25,28,29Pro-h-amylin (also referred to herein as “AC-0137”), and ^18Arg^25,28Pro-h-amylin.

solubility characteristics	stability characteristics	SMILES
more desirable	–	CC[C@H](C)[C@H](NC(=O)[C@@H]1CCCN1C(=O)CNC(=O)[C@H](Cc1ccccc1)NC(=O)[C@H](CC(N)=O)NC(=O)[C@H](CC(N)=O)NC(=O)[C@H](CO)NC(=O)[C@H](CO)NC(=O)[C@H](Cc1c[nH]cn1)NC(=O)[C@@H](NC(=O)[C@H](CC(C)C)NC(=O)[C@H](Cc1ccccc1)NC(=O)[C@H](CC(N)=O)NC(=O)[C@H](C)NC(=O)[C@H](CC(C)C)NC(=O)[C@H](CCCNC(=N)N)NC(=O)[C@H](CCC(N)=O)NC(=O)[C@@H](NC(=O)[C@H](C)NC(=O)[C@@H]1CSSC[C@H](NC(=O)[C@@H](N)CCCCN)C(=O)N[C@@H](CC(N)=O)C(=O)N[C@@H]([C@@H](C)O)C(=O)N[C@@H](C)C(=O)N[C@@H]([C@@H](C)O)C(=O)N1)[C@@H](C)O)C(C)C)C(=O)N[C@@H](CC(C)C)C(=O)N1CCC[C@H]1C(=O)N1CCC[C@H]1C(=O)N[C@H](C(=O)N[C@@H](CC(N)=O)C(=O)N[C@H](C(=O)NCC(=O)N[C@@H](CO)C(=O)N[C@@H](CC(N)=O)C(=O)N[C@H](C(=O)N[C@@H](Cc1ccc(O)cc1)C(N)=O)[C@@H](C)O)C(C)C)[C@@H](C)O [AC137, ^25,28,29Pro-h-amylin]
more desirable	more desirable	CC[C@H](C)[C@H](NC(=O)[C@@H]1CCCN1C(=O)CNC(=O)[C@H](Cc1ccccc1)NC(=O)[C@H](CC(N)=O)NC(=O)[C@H](CC(N)=O)NC(=O)[C@H](CO)NC(=O)[C@H](CO)NC(=O)[C@H](CCCNC(=N)N)NC(=O)[C@@H](NC(=O)[C@H](CC(C)C)NC(=O)[C@H](Cc1ccccc1)NC(=O)[C@H](CC(N)=O)NC(=O)[C@H](C)NC(=O)[C@H](CC(C)C)NC(=O)[C@H](CCCNC(=N)N)NC(=O)[C@H](CCC(N)=O)NC(=O)[C@@H](NC(=O)[C@H](C)NC(=O)[C@@H]1CSSC[C@H](NC(=O)[C@@H](N)CCCCN)C(=O)N[C@@H](CC(N)=O)C(=O)N[C@@H]([C@@H](C)O)C(=O)N[C@@H](C)C(=O)N[C@@H]([C@@H](C)O)C(=O)N1)[C@@H](C)O)C(C)C)C(=O)N[C@@H](CC(C)C)C(=O)N1CCC[C@H]1C(=O)N[C@@H](CO)C(=O)N[C@H](C(=O)N[C@@H](CC(N)=O)C(=O)N[C@H](C(=O)NCC(=O)N[C@@H](CO)C(=O)N[C@@H](CC(N)=O)C(=O)N[C@H](C(=O)N[C@@H](Cc1ccc(O)cc1)C(N)=O)[C@@H](C)O)C(C)C)[C@@H](C)O [^18Arg^25,28Pro-h-amylin]
more desirable	more desirable	CC(C)C[C@H](NC(=O)[C@H](CCCNC(=N)N)NC(=O)[C@H](CCC(N)=O)NC(=O)[C@@H](NC(=O)[C@H](C)NC(=O)[C@@H]1CSSC[C@H](NC(=O)[C@@H](N)CCCCN)C(=O)N[C@@H](CC(N)=O)C(=O)N[C@@H]([C@@H](C)O)C(=O)N[C@@H](C)C(=O)N[C@@H]([C@@H](C)O)C(=O)N1)[C@@H](C)O)C(=O)N[C@@H](C)C(=O)N[C@@H](CC(N)=O)C(=O)N[C@@H](Cc1ccccc1)C(=O)N[C@@H](CC(C)C)C(=O)N[C@H](C(=O)N[C@@H](Cc1c[nH]cn1)C(=O)N[C@@H](CO)C(=O)N[C@@H](CO)C(=O)N[C@@H](CC(N)=O)C(=O)N[C@@H](CC(N)=O)C(=O)N[C@@H](Cc1ccccc1)C(=O)NCC(=O)N1CCC[C@H]1C(=O)N[C@H](C(=O)N[C@@H](CC(C)C)C(=O)N1CCC[C@H]1C(=O)N1CCC[C@H]1C(=O)N[C@H](C(=O)N[C@@H](CC(N)=O)C(=O)N[C@H](C(=O)NCC(=O)N[C@@H](CO)C(=O)N[C@@H](CC(N)=O)C(=O)N[C@H](C(=O)N[C@@H](Cc1ccc(O)cc1)C(N)=O)[C@@H](C)O)C(C)C)[C@@H](C)O)C(C)C)C(C)C [^25Pro^26Val^28,29Pro-h-amylin]
